Patent US20080176963A1, “TREATMENT OF BRAIN DISORDERS OF THE STRIATUM” (priority 2007, published 2008)

Tests used:
[1] = test system: indirect-pathway MSN synapses; assay: LTD induced by tetanic stimulation in striatal slices from reserpine-treated mice; format: cell-based, mouse
[2] = test system: indirect-pathway MSN synapses; format: cell-based, mouse
[3] = test system: indirect-pathway synapses; assay: DHPG-elicited depression of EPSCs (eCB-LTD), indirect pathway; format: cell-based, mouse
reserpine-treated mice = assay: Open-field locomotor activity in reserpine-treated mice; conditions: mouse, in vivo
Description: (§1) Dopamine depletion and behaviour. Reserpine was administered i.p. at a concentration of 1 or 5 mgkg^−1, and electrophysiological and behavioural experiments were performed 18-24 h after injections. 6-Hydroxydopamine was injected bilaterally into the median forebrain bundle at a concentration of 5 μg μl^−1 to a total volume of 2 μL per side, and experiments were performed 48-60 h after injections. Catalepsy was measured with the bar test. Descent latency represents the time in seconds required for the mouse either to remove both paws from a bar (diameter 2 mm) placed 4 cm above the ground, or for one paw to touch the ground. Horizontal locomotor activity was measured in 15-min blocks with the ENV-510 test chamber and Activity Monitor software. Animals were tested 45-60 min after drug administration. All procedures involving animals were approved by the Institutional Animal Care and Use Committee.
Reserpine treatment. To study the effects of dopamine depletion, reserpine (Sigma-Aldrich) was dissolved in 1% glacial acetic acid at a concentration of 2.5 mg/mL. […]
(§2) To test catalepsy, a horizontal bar (2 mm diameter) was placed 4 cm above the ground. […] Descent latency was measured as the delay to when either both paws were removed from the bar or one paw touched the ground. […]

6-OHDA-treated mice = conditions: mouse, in vivo
Description: as §1
6-hydroxydopamine treatment Bilateral lesions of the substantia nigra pars compacta were achieved by injecting 6-OHDA Bromide (Sigma-Aldrich) into the right and left medial forebrain bundles. […]
as §2

## CCCN1CCC[C@@H]2Cc3n[nH]cc3C[C@H]21 [quinpirole]
[1]
  EPSC after LTD induction, % of baseline at 30-40 min: 81±9 % of baseline
[2]
  EPSC after LTD induction, % of baseline at 30-40 min: 65±8 % of baseline
[3]
  EPSC, % of baseline at 20-30 min after brief DHPG application: 73±8 % of baseline
reserpine-treated mice
  Distance traveled in 15 min, open field: 105±47 cm
6-OHDA-treated mice
  Distance traveled in 15 min, open field: 385±129 cm

Where two headings read alike, the source gives them in different places.
